Patent publication US20260384391A1, “MASKED 2-AMINOISOBUTYRIC ACID AND METHODS OF USE THEREOF” (published 2026)

What was measured:
[1] = tested on: GFP-150TAG; M. mazei WT and M. mazei mkRS1 mutant synthetases; assay: in vivo GFP suppression assay (GFP-150TAG amber suppression), M. mazei PylRS/tRNA^pyl (FIG. 5); settings: in words; control without unnatural amino acids ("None"); M. mazei WT and mkRS1 (FIG. 5)
[2] = tested on: M. mazei mkRS1 mutant (GFP-150TAG reporter); settings: in words; previously shown; cited from earlier work

Row | Structure (SMILES) | suppression of GFP compared to control [1] | incorporation by M. mazei mkRS1 mutant [2]
1 | C[C@](N)(CSCCNC(=O)OCc1ccccc1)C(=O)O | showed suppression of GFP compared to the control | 
2 | N[C@@H](CCCCNC(=O)OCc1ccccc1)C(=O)O |  | previously shown to incorporate CbzK
